# PubChem BioAssay AID652083 (The Scripps Research Institute Molecular Screening Center, 2013)
# The other results are listed elsewhere or left out. Activity calls are given as the source filed them.
# Test system: GABA (non-selective)
# Assay: PubChem AID 652083
# Details: CEREP radioligand binding panel, % inhibition at 10 uM, hits give high values
compound,measurement,value
COC(=O)c1cc(Br)cnc1N1CCC(NC2CCCCC2)C(O)C1 (stereo unspecified),inhibition of specific binding,inactive: -14%
